{
  "source": "patent US20250186592A1",
  "about": "“TETRAZINE CONJUGATES FOR IN VIVO TARGETED DELIVERY OF A PAYLOAD” (Tambo, Inc., priority 2021, published 2025)",
  "key": {"[1]": {"test_system": "HER2 positive cell line (NCI-N87 cell line)", "assay": "FACS binding assay against HER2 positive cell line", "conditions": "NCI-N87 cells, FIG. 7", "procedure": "Fab of trastuzumab was synthesized by plasmid construction, HEK293 cell expression and purification. The Fab-tetrazine conjugate (ADC) was prepared by reacting Me-Tet-PEG9-NHS (structure shown below, purchased from SiChem; catalog No. SC-8808) to primary amines on the Fab to form stable amide bonds. The ADC was tested by flow cytometry (FACS) to compare binding to HER2 positive cells in comparison with un-conjugated Fab.\nFACS binding assay of trastuzumab Fab, Fab-Me-Tet-PEG9-NHS conjugate against HER2 positive cell line: Cells (NCI-N87 cell line) cultured in RPMI1640+10% FBS were collected by centrifugation, re-suspended with FACS buffer (PBS containing 2% FBS, pH 7.4) and adjusted to density of 2E6/mL. 100 μL (2E5) of cells was seeded into a 96 well plate, centrifuged at 400 g for 5 minutes, discarded the supernatant and resuspended with serially diluted Fab solution at 1:10 ratio from a 20 μL/mL stock solution. The Ab and cells were incubated at 4° C. for 1 hour before the cells were treated by centrifugation at 400 g for 5 minutes to remove the supernatant and washed 3 times with FACS buffer (200 μL/well). […]"}, "NCI-N87 xenograft": {"test_system": "NCI-N87 xenograft", "assay": "Efficacy study in subcutaneous NCI-N87 xenograft model in CB17 SCID mice", "format": "in vivo, mice (Mus musculus)", "conditions": "Group 3: Tz-Fab 50 mpk i.v. QW×2 weeks; day 35 after grouping; vehicle 1009 mm^3", "procedure": "Methods: 110 CB17 SCID female mice (Mus musculus; age: 6-8 weeks; body weight: 18-22 g; Shanghai LingChang Biotech Co., LTD) were inoculated subcutaneously at right flank with NCI-N87 cells (3×10^6 cells was suspended in 0.2 mL mixture of 1640 with (1640: Matrigel=1:1) BD Matrigel for tumor development). After 7 days inoculation, 70 animals were divided into 8 groups with 10 animals in group 1, 2, 5, 6, 7 and 8, and with 5 animals in group 3 and 4 using stratified random grouping based on their body weight and tumor volume. The treatments were started from the mean tumor size reached to 158 mm^3 (106-221 mm^3) for these 70 mice. Group 1: Vehicle, i.v., QD×3×2 weeks. Group 2: MMAE, 0.25 mpk, i.v., QW×2 weeks. Group 3: Tz-Fab, 50 mpk, i.v., QW×2 weeks. Group 4: Compound A, 20 mpk, i.v., QD×3×2 weeks. Group 5: Tz-Fab, 50 mpk, i.v., QW×2 weeks+Compound A, 20 mpk, i.v., QD×3×2 weeks. Group 6: Tz-Fab, 50 mpk, i.v., QW×2 weeks+Compound A, 5 mpk, i.v., QD×3×2 weeks. Group 7: SQL70, 100 μL, i.t.×1 dose+Compound A, 1.9 mpk, i.v., QD×5. Group 8: T-DM1, 3 mpk, i.v., QW×2 weeks. The tumor sizes and body weight were measured twice a week during the treatment. The dosing schedule was finished on day PG-D10. […]\nStatistical Analysis: The tumor volume between different groups was analyzed by two-way repeated measures ANOVA followed by the Tukey's post hoc test. All data were analyzed using GraphPad Prism 6.0. […]"}},
  "data": [
    {"substance": "Tz-Fab", "values": [
      {"measurement": "binding activity in comparison to un-conjugated Fab", "setting": "[1]", "result": "comparable or slightly reduced binding activity"},
      {"measurement": "mean tumor size on day 35", "setting": "NCI-N87 xenograft", "result": 1043, "unit": "mm^3"}
    ]}
  ]
}
